## Measured affinities in a library of Ab-14 heavy chain variants

The measurements come from Engelhart et al. 2022 (doi:10.1038/s41597-022-01779-4) through the FLAb antibody collection.

Target peptide (SARS-CoV-2 spike, HR2 region): PDVDLGDISGINAS

The variants keep the light chain, the linker and the frameworks of Ab-14 (scFv order VH, the linker GGGGSGGGGSGGGGS, VL).
VH: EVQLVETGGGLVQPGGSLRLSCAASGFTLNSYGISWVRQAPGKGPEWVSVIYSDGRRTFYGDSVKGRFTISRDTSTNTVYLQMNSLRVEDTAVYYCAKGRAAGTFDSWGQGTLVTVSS
VL: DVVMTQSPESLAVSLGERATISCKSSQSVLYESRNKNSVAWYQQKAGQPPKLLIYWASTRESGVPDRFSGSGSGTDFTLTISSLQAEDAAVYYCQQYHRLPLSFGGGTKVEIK

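Phage display of a naive human antibody library on the peptide gave the parent. AAYL49 was designed without a model: most single CDR substitutions and a random sample of double and triple ones. Affinity was read by AlphaSeq, a pooled yeast mating assay with surface-displayed partners. The frequency of each diploid, read from paired DNA barcodes, reflects how well the two displayed proteins bind. A regression on co-assayed BCL2-family reference pairs converts the normalised counts of each replicate to an apparent Kd. There are three technical replicates.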

Changes read parent residue, position, new residue, counted from the first residue of the VH shown. Every variant below is changed at F59 of the VH (sequential numbering). Scale: log10 of Kd in nM, estimated from mating counts; low values are strong binders. Averages over replicates are reported, and they cover detected replicates only. "nd" marks a missing value. The strain was present, yet no cells mated with the target were sequenced in any replicate, which points to weak or no binding. Entries are sorted by rising average, undetected variants last. Three control strains display no target. For library AAYL49, 15% of the pairings with them gave a signal, with a median of 4.06 and one signal in twenty below 2.83, so weak values seen in few replicates may be background.

changes,mean log10 Kd (nM),replicates with signal
T28W/F59A/A101N,-0.04,3 of 3
F27D/F59S,0.35,3 of 3
F59H/T104G,1.19,3 of 3
T58R/F59V/R100L,1.31,3 of 3
T58C/F59E,1.35,3 of 3
F59S/R100D/A102L,1.42,3 of 3
G26N/F59Y,1.58,3 of 3
S31W/F59G/R100N,1.74,3 of 3
F59V/A101S/D106Q,1.78,3 of 3
S53G/T58L/F59Y,2.36,3 of 3
T28L/F59D/F105T,2.84,3 of 3
F59P/K65G/R100D,2.90,2 of 3
N30A/F59L,2.95,3 of 3
L29N/F59N,3.11,3 of 3
F27D/F59M/G103E,3.39,1 of 3
V50C/F59W/A101P,3.69,1 of 3
G26P/F59T/F105P,3.73,2 of 3
S31G/V50E/F59H,3.87,3 of 3
I34P/F59C/D62R,3.95,1 of 3
F27N/F59T/S63W,3.99,2 of 3
F59M/K65A/S107Y,4.01,1 of 3
F59Q/Y60Q/A102K,4.17,1 of 3
G55A/R57S/F59E,4.18,2 of 3
Y52I/F59C,4.28,1 of 3
N30G/G33E/F59E,4.28,1 of 3
V50F/F59H/G99F,4.42,1 of 3
S53R/F59K/V64M,4.50,2 of 3
I34R/D54C/F59T,4.66,2 of 3
S53F/R57S/F59K,4.68,1 of 3
Y32T/F59G/G103T,4.97,3 of 3
G33K/F59G/F105H,5.03,1 of 3
F59M/V64N/S107I,5.21,2 of 3
G55Y/F59R/R100S,5.33,1 of 3
G55F/F59N/F105A,nd,0 of 3
L29Y/F59Q/A102C,nd,0 of 3
L29K/D54L/F59N,nd,0 of 3
R56M/F59V/G99S,nd,0 of 3
T28W/F59E/Y60A,nd,0 of 3
Y52V/F59S/V64W,nd,0 of 3
L29C/F59E/F105V,nd,0 of 3
S31G/I51G/F59M,nd,0 of 3
V50E/F59D/A101K,nd,0 of 3
F59T/G103T/T104H,nd,0 of 3
R56N/F59G/G99D,nd,0 of 3
S53D/F59Y/S107M,nd,0 of 3
T58K/F59G/G99D,nd,0 of 3
S31V/F59I/S107T,nd,0 of 3
V50F/F59C/R100N,nd,0 of 3
T28V/S53I/F59S,nd,0 of 3
R57F/F59Y,nd,0 of 3
L29C/G33L/F59Y,nd,0 of 3
Y32N/G55P/F59I,nd,0 of 3
G55S/F59T/R100L,nd,0 of 3
V50F/F59L,nd,0 of 3
S35R/T58W/F59L,nd,0 of 3
Y32C/F59I/S63P,nd,0 of 3
S35M/R57C/F59V,nd,0 of 3
F59L/D62W/G103M,nd,0 of 3
N30K/F59P/S107F,nd,0 of 3
V50K/Y52F/F59V,nd,0 of 3
I51D/F59N/S107R,nd,0 of 3
F27M/F59M/T104I,nd,0 of 3
T28C/L29E/F59K,nd,0 of 3
I34T/F59M,nd,0 of 3
G55V/F59Y/D106H,nd,0 of 3
F59Y/S107V,nd,0 of 3
N30R/D54W/F59D,nd,0 of 3
D54E/F59E/F105I,nd,0 of 3

The closing 5 entries, repeated:

changes,mean log10 Kd (nM),replicates with signal
I34T/F59M,nd,0 of 3
G55V/F59Y/D106H,nd,0 of 3
F59Y/S107V,nd,0 of 3
N30R/D54W/F59D,nd,0 of 3
D54E/F59E/F105I,nd,0 of 3